Results reported in patent publication US9340549B2, “Oxazolidinone compounds and derivatives thereof” (priority 2012, dated 2016).

Amino acid sequences for entries named in this document (tags omitted). Residues count along the entry.
UniProt O95271, 1091-1325: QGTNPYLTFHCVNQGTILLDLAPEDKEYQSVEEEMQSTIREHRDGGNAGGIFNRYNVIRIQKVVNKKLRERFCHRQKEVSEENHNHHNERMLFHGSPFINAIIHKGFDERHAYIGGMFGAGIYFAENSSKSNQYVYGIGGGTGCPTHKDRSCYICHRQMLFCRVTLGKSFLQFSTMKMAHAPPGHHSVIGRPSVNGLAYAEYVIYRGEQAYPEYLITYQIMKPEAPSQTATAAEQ

Biological target: 6×HIS-tankyrase 1 (1091-1325) (Homo sapiens (Human), UniProt O95271)
Assay type: biochemical
Settings: […] enzyme, 400 nM NAD, 60 minutes at room temperature; read-out: TNKS1 IP IC50

Compound CC1(C)OC(=O)N([C@H]2CC[C@H](n3c(=O)[nH]c4cc(Cl)ccc43)CC2)[C@H]1c1ccccc1 [Example 29, (S)-3-((1r,4S)-4-(5-chloro-2-oxo-2,3-dihydro-1H-benzo[d]imidazol-1-yl)cyclohexyl)-5,5-dimethyl-4-phenyloxazolidin-2-one] has an IC50 of 5.33 nM.
